Measured values reported in publication PMC4481117 (Molecular Pain, 2015).

Molecular target: T1, Mac-1 (Mac-1-expressing HEK293 cells) (Homo sapiens, UniProt P05107+P11215)
T1 construct: expressed in transfected cells
Assay: Adhesion of Mac-1-HEK293 cells to immobilized peptide
Type: cell-based
Method: Fig. 3 Adhesion of Mac-1-expressing cells to Dyn A and Dyn B. a, Mac-1-expressing and wild-type HEK293 cells were labeled with calcein and 5x10^4 cells were added to the wells coated with different concentrations of the Dyn A. After 30 min at 37 °C, nonadherent cells were removed and fluorescence was measured. The data shown are means of triplicate determinations, and error bars represent S.E. The figure is representative of 8 experiments. b , adhesion of HEK293 cells expressing Mac-1, LFA and the I-less form of Mac-1 to Dyn A and Dyn B immobilized at 10 μM was determined as described in A. c, calcein-labeled Mac-1-HEK293 cells were preincubated without or with 10 μg/ml of anti-αM mAb 44a or 1 μg/ml NIF for 15 minutes. For testing the role of glucosaminoglycans in cell adhesion, dynorphin A-coated wells were preincubated with 100 μl of 10 μg/ml of chondroitin sulfate A, chondroitin sulfate B and heparin. […]
Adhesion assays were performed essentially as described previously. […] Fluorescence was measured in a CytoFluorII fluorescence plate reader (Perceptive Biosystems, Framingham, MA). […] After aspirating the solution, labeled cells were added and cell adhesion was analyzed as above.

SMILES: CC(C)C[C@H](NC(=O)[C@H](Cc1ccccc1)NC(=O)CNC(=O)CNC(=O)[C@@H](N)Cc1ccc(O)cc1)C(=O)N[C@@H](CCCN=C(N)N)C(=O)N[C@@H](CCCN=C(N)N)C(=O)N[C@@H](CCC(N)=O)C(=O)N[C@@H](Cc1ccccc1)C(=O)N[C@@H](CCCCN)C(=O)N[C@H](C(=O)N[C@H](C(=O)N[C@H](C(=O)O)[C@@H](C)O)C(C)C)C(C)C [Dyn B]
- EC50: ~7.5 µM
